One assay addresses human A1AR (Homo sapiens, UniProt P30542).
The target in another assay is human A2AAR (Homo sapiens, UniProt P29274). Particulars: [3H]ZM241385, human HeLa cells, n = 2.
Another assay deals with T1, human A2BAR (Homo sapiens, UniProt P29275).
T1 sequence (P29275 1-332): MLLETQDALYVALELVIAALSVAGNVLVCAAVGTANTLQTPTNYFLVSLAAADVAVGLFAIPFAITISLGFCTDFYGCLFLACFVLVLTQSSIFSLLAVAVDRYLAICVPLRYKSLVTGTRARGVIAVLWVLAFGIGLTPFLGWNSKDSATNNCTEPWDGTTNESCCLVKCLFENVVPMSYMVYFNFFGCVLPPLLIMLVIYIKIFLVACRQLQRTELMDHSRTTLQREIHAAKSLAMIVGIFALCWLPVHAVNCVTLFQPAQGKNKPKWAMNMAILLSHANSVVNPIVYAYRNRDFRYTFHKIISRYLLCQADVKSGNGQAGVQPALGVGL
Description: biochemical. Particulars: read-out: hA2B percentage displacement of specific binding at 1 μM.

The chains behind the UniProt entries cited, without tags or fusion partners.
UniProt P30542, whole entry: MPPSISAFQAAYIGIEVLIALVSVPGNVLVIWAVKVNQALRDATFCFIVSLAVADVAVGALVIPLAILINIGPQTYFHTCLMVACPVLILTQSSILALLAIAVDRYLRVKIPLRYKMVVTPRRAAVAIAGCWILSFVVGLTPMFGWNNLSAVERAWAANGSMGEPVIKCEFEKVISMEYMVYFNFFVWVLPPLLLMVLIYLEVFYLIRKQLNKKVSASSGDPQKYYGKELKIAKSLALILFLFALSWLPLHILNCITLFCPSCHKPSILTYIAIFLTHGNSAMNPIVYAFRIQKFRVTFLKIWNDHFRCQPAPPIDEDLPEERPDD
UniProt P0DMS8, whole entry: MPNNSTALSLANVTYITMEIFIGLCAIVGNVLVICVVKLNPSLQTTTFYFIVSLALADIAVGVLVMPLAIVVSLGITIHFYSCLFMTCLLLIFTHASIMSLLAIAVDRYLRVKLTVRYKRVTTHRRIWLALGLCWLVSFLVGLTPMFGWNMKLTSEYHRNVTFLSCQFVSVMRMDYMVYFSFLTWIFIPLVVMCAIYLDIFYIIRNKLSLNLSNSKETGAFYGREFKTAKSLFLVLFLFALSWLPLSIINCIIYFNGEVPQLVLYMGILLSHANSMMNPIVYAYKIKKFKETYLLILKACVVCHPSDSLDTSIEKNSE

Another assay concerns the target human A3AR (Homo sapiens, UniProt P0DMS8). The assay can be described thus: biochemical. The following applies: 3 h, read-out: hA3 percentage displacement of specific binding at 1 μM.

Read-outs that look alike come from different tables or passages of the source.

For the molecule `CNc1nc(-c2ccccc2)c(C#N)c(-c2ccc(OC)cc2)n1` [19ab], the “Exp relative binding affinity (ΔΔGbind)” value on human A1AR (Lig 2 relative to Lig 1 = 19a) is 1,09 kcal/mol. Moreover, the “hA2A percentage displacement of specific binding at 1 μM” value (“hA2A percentage displacement” below) at human A2AAR amounted to 6%. In addition, the inhibition at 1 µM on human A2BAR worked out at 1%.

On human A1AR, `CNc1nc(-c2ccccc2)c(C#N)c(-c2ccc(F)cc2F)n1` [19af] displayed an A1AR selectivity above 1000 fold. The “Exp relative binding affinity (ΔΔGbind)” value is reported as -0.02 kcal/mol on human A1AR (Lig 2 relative to Lig 1 = 19v) and -0.16 kcal/mol on human A1AR (Lig 2 relative to Lig 1 = 19d). The inhibition at 1 µM on human A3AR came out at 2%; on human A2BAR it was 3%.

`CNc1nc(-c2ccccc2)c(C#N)c(-c2cc(Cl)cc(Cl)c2)n1` [19aj] showed an A1AR selectivity on human A1AR above 1000 fold. Moreover, the “Exp relative binding affinity (ΔΔGbind)” value at human A1AR (Lig 2 relative to Lig 1 = 19a) is 0,64 kcal/mol. Moreover, the “hA2A percentage displacement” value on human A2AAR was determined as 2%. Further, the inhibition at 1 µM was 2% at human A3AR and 1% at human A2BAR.

In the case of `CNc1nc(-c2ccccc2)c(C#N)c(-c2ccoc2)n1` [19ax], the “Exp relative binding affinity (ΔΔGbind)” value is listed as 4.14 kcal/mol on human A1AR (Lig 2 relative to Lig 1 = 19a) and 3.48 kcal/mol at human A1AR (Lig 2 relative to Lig 1 = 19ad). In addition, the “hA2A percentage displacement” value at human A2AAR was found to be 23%. The inhibition at 1 µM on human A2BAR turned out to be 1%.

As to `N#Cc1c(-c2ccccc2)nc(Nc2ccccc2)nc1C1CCCCC1` [19bh], at human A2AAR, the “hA2A percentage displacement” value was 1%. Moreover, the inhibition at 1 µM at human A3AR was determined as 3%; on human A2BAR, 6%.

As for `CNc1nc(-c2cccc(Cl)c2)c(C#N)c(-c2cccc(Cl)c2)n1` [19bi], the “hA2A percentage displacement” value on human A2AAR is 3%. Further, the inhibition at 1 µM on human A3AR was found to be 12%; at human A2BAR it was 1%.

`N#Cc1c(-c2cccc(Cl)c2)nc(Nc2ccccc2)nc1-c1cccc(Cl)c1` [19bj]: the “hA2A percentage displacement” value at human A2AAR is 12%. Moreover, the inhibition at 1 µM was 16% at human A3AR and 2% at human A2BAR.

On to `CNc1nc(-c2cccc(Cl)c2)c(C#N)c(-c2cc(Cl)cc(Cl)c2)n1` [19bk], for which the “hA2A percentage displacement” value at human A2AAR came out at 1%. Further, the inhibition at 1 µM at human A3AR is 11%; at human A2BAR it was 4%.

For the molecule `N#Cc1c(-c2cccc(Cl)c2)nc(Nc2ccccc2)nc1-c1cc(Cl)cc(Cl)c1` [19bl], the “hA2A percentage displacement” value at human A2AAR worked out at 4%. Also, the inhibition at 1 µM on human A3AR was determined as 9%; on human A2BAR, 1%.

`CNc1nc(-c2ccc(OC)cc2)c(C#N)c(-c2ccc(OC)cc2)n1` [19bm]: the “hA2A percentage displacement” value at human A2AAR was 2%. In addition, the values for the inhibition at 1 µM on human A3AR and on human A2BAR were 23% and 7%, respectively.

As to `N#Cc1c(-c2ccccc2)nc(Nc2ccccc2)nc1-c1ccccc1Cl` [19g], at human A2AAR, the “hA2A percentage displacement” value is 5%. Further, the inhibition at 1 µM came out at 1% at human A3AR and 14% at human A2BAR.

As to `COc1ccccc1-c1nc(Nc2ccccc2)nc(-c2ccccc2)c1C#N` [19i], the “hA2A percentage displacement” value at human A2AAR worked out at 2%. In addition, the inhibition at 1 µM on human A3AR came out at 9%; at human A2BAR, 5%.

For `CNc1nc(-c2ccccc2)c(C#N)c(-c2ccc(Br)cc2)n1` [19x], the “hA2A percentage displacement” value at human A2AAR is reported as 3%. For the same molecule, the results for the inhibition at 1 µM at human A3AR and on human A2BAR were 2% and 8%, respectively.

On to `N#Cc1c(-c2ccccc2)nc(Nc2ccccc2)nc1-c1ccc(Br)cc1` [19y], for which the “hA2A percentage displacement” value at human A2AAR worked out at 8%. In addition, the values for the inhibition at 1 µM at human A3AR and at human A2BAR were 43% and 1%, respectively.

Turning to `CNc1nc(-c2ccccc2)c(C#N)c(-c2ccc(O)cc2)n1` [19z], on human A2AAR, the “hA2A percentage displacement” value was determined as 7%. The results for the inhibition at 1 µM at human A3AR and on human A2BAR were 8% and 2%, respectively.

For `CN(C)c1nc(-c2ccccc2)c(C#N)c(-c2ccccc2)n1` [20a], the “hA2A percentage displacement” value on human A2AAR came to 1%. The inhibition at 1 µM worked out at 9% at human A3AR and 3% at human A2BAR.

Turning to `CN(C)c1nc(-c2ccccc2)c(C#N)c(-c2ccc(F)cc2)n1` [20c], the “hA2A percentage displacement” value at human A2AAR is on record as 2%. Further, the inhibition at 1 µM amounted to 1% at human A3AR and 4% at human A2BAR.

(Values after publication PMC8842224 (2022).)
